The list shows a part of the results, in another mix than the full data. The source made the active and inactive calls.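 How the source made its calls: active means the 320 compounds with the highest percent inhibition in the single-dose primary screen, excluding strongly autofluorescent ones (cut at about 32% in these data); inactive means the rest, inconclusive results apart.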

The experiment deals with diphosphomevalonate decarboxylase (Streptococcus pneumoniae D39). The experiment can be described thus: diphosphomevalonate decarboxylase activity blockers – biochemical, PK/LDH-coupled NADH fluorescence, primary screen (AID 556).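 On inhibition: kinetic rate of NADH fluorescence loss reporting ADP formed by the decarboxylase; 0% = full reaction rate with carrier and 100% = no-substrate background rate.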 As to conditions: purified DPM-DC, at 10 µM; active compounds read high.
Broadly, the inhibition is the percentage by which the read-out fell short of the control. Take `CP(=S)(Nn1cnnc1)Oc1ccccc1` (configuration not stated): the inhibition was inactive: 1%. In the case of `COP1(=S)c2c(C)nn(CCC#N)c2N=C(c2ccc(F)cc2)N1C` (configuration not stated), the inhibition entry is “inactive”. Next, `CP(=O)(NC(=O)Nc1ccccc1)Oc1ccccc1` (configuration not stated): “inactive”; `O=C(COc1ccccc1)OC1CN2CCC1CC2` (configuration not stated): “inactive”; `CCOP(C)(=S)SCC(=O)NC(C)C(=O)O` (configuration not stated): “inactive”. Take `O=C(OC1CN2CCC1CC2)C12CC3CC(CC(C3)C1)C2` (configuration not stated): the inhibition result is “inactive”. As to `Cc1ccc(NP(C)(=O)Oc2ccccc2)c(C)c1` (configuration not stated), the inhibition result is “inactive”. Next, `COc1ccccc1OP(C)(=O)Nc1ccc(C)cc1` (configuration not stated): “inactive”; `CCOP1(=S)c2c(C)nn(CCC#N)c2N=C(c2ccccc2F)N1C` (configuration not stated): “inactive”; `CCOP1(=S)c2c(C)nn(CCC#N)c2N=C(c2ccc(F)cc2)N1C` (configuration not stated): “inactive”. Consider `Cc1cccc(OCC(=O)OC2CN3CCC2CC3)c1` (configuration not stated), for which the inhibition entry is “inactive”.

With `Cc1ccc(C)c(NP(C)(=O)Oc2ccccc2)c1` (configuration not stated), the inhibition result is “inactive”. Next, `O=P1(Nc2ccccn2)COc2ccccc2OC1`: inactive: 7%; `Clc1n[nH]nc1-c1nn[nH][15n]1`: “inactive”; `Cc1nc2ccc3ccccc3c2s1.O=[N+]([O-])c1cc([N+](=O)[O-])c(O)c([N+](=O)[O-])c1`: inactive: 2%. Next, `Cc1nn(-c2ccccc2)c2c1P(=O)(N1CCOCC1)N(C)C(c1ccccc1)=N2` (configuration not stated): “inactive”; `O=P1(Nc2ncccn2)COc2ccccc2OC1`: inactive: 1%. Turning to `Cc1ccc(OCC(=O)OC2CN3CCC2CC3)cc1` (configuration not stated), the inhibition result is “inactive”. Next, `O=P1(Nc2ccc(Br)cn2)COc2ccccc2OC1`: “inactive”; `CN(C)CCOC(=O)C(O)(c1ccccc1)C1CCCCC1` (configuration not stated): “inactive”; `O=C(OC1CN2CCC1CC2)c1cccc(Cl)c1` (configuration not stated): “inactive”.

As for `O=P(Nc1nccs1)(c1ccccc1)c1ccccc1`, the inhibition was inactive: 14%.

Turning to `CCOP(C)(=S)SCC(=O)NC(C)(CC)C(=O)O` (configuration not stated), the inhibition result is “inactive”. Next, `c1nnnn1CCn1cnnn1`: “inactive”; `CP(=O)(Nc1ccc2c(c1)OCCO2)Oc1ccccc1` (configuration not stated): “inactive”.

As for `Cc1ccccc1NP(C)(=O)Nc1ccccc1C`, the inhibition entry is “inactive”. For `O=P1(Nc2nc3ccc(Cl)cc3s2)COc2ccccc2O1` (configuration not stated), the inhibition entry was “inactive”.

Turning to `CP(=O)(Nc1ccccc1F)Oc1ccccc1` (configuration not stated), the inhibition entry was “inactive”. Next, `COC(=O)c1cc2c(s1)N=C(c1ccccc1)N(C)P2(=O)N1CCOCC1` (configuration not stated): “inactive”; `COc1ccccc1OP(C)(=O)Nc1ccc(C)c(C)c1` (configuration not stated): “inactive”; `Cc1nc2ccc3ccccc3c2o1.O=[N+]([O-])c1cc([N+](=O)[O-])c(O)c([N+](=O)[O-])c1`: inactive: 22%. As to `Cc1c2non([O-])c-2c(C)[n+](=O)[n+]1[O-]`, the inhibition result is “inactive”. As to `CP(=O)(Nc1ccccn1)Oc1ccccc1` (configuration not stated), the inhibition entry was “inactive”.

As to `CCN(CC)CC(O)COC(=O)C(O)(c1ccccc1)C1CCCCC1` (configuration not stated), the inhibition entry was “inactive”. For `COc1ccccc1OP(C)(=O)Nc1c(C)n(C)n(-c2ccccc2)c1=O` (configuration not stated), the inhibition result was “inactive”. For `CCc1nc2c(n1)c1c(non1O)c1c2no[n+]1[O-]` the value was “inactive”; for `CP(=O)(Oc1ccccc1)N1CCOC1=O` (configuration not stated), “inactive”.

Values taken from PubChem BioAssay AID556 (SRMLSC, 2006).
